Reference: patent US20250268948A1, “COMPOSITIONS AND METHODS FOR TREATING POST ACUTE SEQUELAE OF SARS-COV-2 INFECTION (LONG COVID)” (priority 2022, published 2025)

Legend:
Conditions in all cases: read-out: EC50, substance P-induced migration; percent closure at 24 hours; sigmoidal curve fit; FIG. 3
human MSCs = experiment: Stem cell migration assay (percent closure of cell-free zone)
Description: (§1) FIG. 1 is a microphotograph depicting cell migration using fluorescent readout and cell tracker green as a fluorescent marker of human UC-MSCs. […] The EC50 was determined as a measure of effectiveness of activating agents. […] An initial analysis of the cell free zone using Image J software was used to screen concentrations of activating agents for dose-response determination in further experiments.
(§2) The cell migration assays described above were set up as follows: One million cells/cell line were resuspended in 10 mL MSC-GRO™ serum free, quiescent medium (Vitro Biopharma Cat. No. SC00B17) containing […] mitomycin C (Sigma, Cat. No. M4287) to inhibit proliferation and incubated for 2 hours at room temperature with end-to-end agitation at 7 RPM. In some experiments, curcumin was used at 1 μM to block proliferation. […] A TOPSEAL™ (PerkinElmer, Cat. No. 6050195) covered the plate for live-cell imaging in a BioTek Cytation3 Imaging Reader. […]

human NSCs = test system: human NSCs
Description: as §1, §2

[1] = test system: human pancreatic fibroblasts
Description: as §1, §2

## CSCC[C@H](NC(=O)[C@H](CC(C)C)NC(=O)CNC(=O)[C@H](Cc1ccccc1)NC(=O)[C@H](Cc1ccccc1)NC(=O)[C@H](CCC(N)=O)NC(=O)[C@H](CCC(N)=O)NC(=O)[C@@H]1CCCN1C(=O)[C@H](CCCCN)NC(=O)[C@@H]1CCCN1C(=O)[C@@H](N)CCCNC(=N)N)C(N)=O [substance P]
Human MSCs
  EC50: 2.48 nM
Human NSCs
  EC50: 2.35 nM
[1]
  EC50: 2.5 nM
